Values of other authors as cited in patent US9480685B2, “Abuse-resistant controlled-release opioid dosage form” (Purdue Pharma L.P., priority 2001, dated 2016).

System: opioid receptors
Details: injected (or snorted) in humans

C=CCN1CC[C@]23c4c5ccc(O)c4O[C@H]2C(=O)CC[C@@]3(O)[C@H]1C5 [naloxone]
amount that blocks the opioid receptors / antagonizes the opioid effect: 0.2 to 0.4 mg
